{"source": "paper PMC11589570", "about": "“Critical assessment of LC3/GABARAP ligands used for degrader development and ligandability of LC3/GABARAP binding pockets” (Nature Communications, 2024)", "assay_in_all_cases": "FP", "key": {"[1]": {"target": "LC3B_(1-120) (human) (UniProt Q9GZQ8)"}, "[2]": {"target": "_(1-116) (human) (UniProt O95166)"}, "[3]": {"target": "1_(1-117) (human) (UniProt Q9H0R8)"}}, "data": [{"substance": "PCM1-LIR", "values": [{"measurement": "Ki", "setting": "[1]", "value": 299, "unit": "µM"}, {"measurement": "Ki", "setting": "[2]", "value": 10.1, "unit": "µM"}, {"measurement": "Ki", "setting": "[3]", "value": 11.2, "unit": "µM"}]}]}
